Literature values in patent US20140336073A1, “METHOD OF DETERMINATION OF CANCER CELL DRUG SENSITIVITY TOWARDS AURORA KINASE INHIBITORS” (PALACKY UNIVERSITY, OLOMOUC, priority 2011, published 2014).

Protein sequences, listed by entry. Tags and fused reporters are not part of them.
UniProt P10415, whole entry: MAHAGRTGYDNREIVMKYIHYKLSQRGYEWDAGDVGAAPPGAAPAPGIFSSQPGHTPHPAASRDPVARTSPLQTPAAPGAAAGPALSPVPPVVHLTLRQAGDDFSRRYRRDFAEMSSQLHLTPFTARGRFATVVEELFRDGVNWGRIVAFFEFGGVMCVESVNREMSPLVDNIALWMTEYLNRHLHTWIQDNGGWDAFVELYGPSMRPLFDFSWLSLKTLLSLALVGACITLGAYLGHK

Target: Bcl-2 (Homo sapiens, UniProt P10415)
Settings: cited from earlier work

CC1(C)CCC(c2ccc(Cl)cc2)=C(CN2CCN(c3ccc(C(=O)NS(=O)(=O)c4ccc(N[C@H](CCN5CCOCC5)CSc5ccccc5)c(S(=O)(=O)C(F)(F)F)c4)cc3)CC2)C1 [ABT-263, (R)4-(4-((4′-chloro-4,4-dimethyl-3,4,5,6-tetrahydro[1,1′-biphenyl]-2-yl)methyl)piperazin-1-yl)-N-((4-((4-morpholino-1-(phenylthio)butan-2-yl)amino)-3-((trifluoromethyl)sulfonyl)phenyl)sulfonyl)benzamide]
Ki: < 1 nM
